Reference: US11286288B2, “Pharmaceutical compound” (VALLAURIX PTE. LTD., priority 2015, dated 2022)

Protein sequences, listed by entry. Tags and fused reporters are not part of them. Lines headed by an entry give the natural chain unless they say otherwise; changes in a name come on top.
UniProt Q01726: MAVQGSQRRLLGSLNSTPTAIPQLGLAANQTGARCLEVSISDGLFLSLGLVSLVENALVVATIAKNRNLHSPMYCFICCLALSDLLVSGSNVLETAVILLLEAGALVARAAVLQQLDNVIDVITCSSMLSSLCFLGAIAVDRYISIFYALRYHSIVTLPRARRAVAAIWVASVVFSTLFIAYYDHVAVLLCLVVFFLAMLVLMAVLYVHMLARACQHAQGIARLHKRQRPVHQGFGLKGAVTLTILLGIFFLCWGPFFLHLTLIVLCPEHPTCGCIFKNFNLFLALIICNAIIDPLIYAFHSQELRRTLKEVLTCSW

Target: T1, MC1R (Homo sapiens, UniProt Q01726)
T1 construct: human melanocyte cultures, coded 1750 and 1753, that were derived from 2 different donors expressing functional MC1R; endogenous in cells; host or cells: primary human melanocyte cultures 1750 and 1753 (two donors)
Test: cAMP radioimmunoassay in human melanocyte culture 1753
Format: cell-based
Conditions: Test 3, melanocytes 1753, at 10^-7 M, 1 hour treatment, p<0.05
Description: Compounds 1, 2, 3 and 4 were tested in various separate tests and using 2 different human melanocyte cultures, coded 1750 and 1753, that were derived from 2 different donors expressing functional MC1R. The melanocytes were plated at a density of 0.3*10^6 cells/well. After 48 hours, the melanocytes were treated with the different compound concentrations for 1 hour. Controls without compound were included in all experiments. In some experiments reference compound NDP-MSH was included. The reaction was stopped by addition of 50 μl N HCl and the supernatant in each well was used to measure cAMP using a radioimmunoassay as described by Suzuki 1996 (Suzuki I, Cone R D, Im S, Nordlund ii, Abdel-Malek Z: “Binding of melanotropic hormones to the MC1 receptor on human melanocytes stimulates proliferation and melanogenesis”. Endocrinology 137: 1627-1633, 1996). Duplicate samples from each well were assayed with triplicate wells included in each compound group. The results from different tests cannot be compared due to differences in melanocyte cultures and to different passage number. The mean of 6 cAMP measurements per group was expressed as % of the control group. Statistical analysis was carried out using ANOVA followed by Newman Kuels test. In some cases, unpaired t-test was used.

cAMP, highest efficacy, % of the control group: 202%
Substance: NDP-MSH [reference compound]
